# Measured affinities in a library of Ab-14 heavy chain variants

The target is the same throughout: PDVDLGDISGINAS, from the HR2 region of SARS-CoV-2 spike.

Parent: Ab-14, a human scFv built as VH, three GGGGS repeats, VL. Only the CDRs of the heavy chain vary.
VH: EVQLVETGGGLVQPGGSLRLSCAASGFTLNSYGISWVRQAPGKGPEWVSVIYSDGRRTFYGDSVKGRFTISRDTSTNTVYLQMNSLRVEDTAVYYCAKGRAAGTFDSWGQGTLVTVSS
VL: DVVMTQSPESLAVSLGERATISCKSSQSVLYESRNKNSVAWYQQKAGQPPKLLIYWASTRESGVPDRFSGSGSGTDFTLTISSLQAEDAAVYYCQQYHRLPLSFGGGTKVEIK

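Phage display of a naive human antibody library on the peptide gave the parent. These sequences belong to a second round, designed from the earlier measurements on random variants of the parent. Several design methods are mixed in this list. Affinity was read by AlphaSeq, a pooled yeast mating assay with surface-displayed partners. Pairs that bind mate more often; barcode pairs of the diploids are counted by sequencing. Read counts were normalised to the haploid input and turned into Kd by a linear fit to BCL2-family pairs of known affinity, for each replicate. Each pool was mated in six replicate cultures.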

Each variant is given by its three heavy chain CDRs, as the data file delimits them; those of the parent are GFTLNSYGIS, VIYSDGRRTFYGDSVK, GRAAGTFDS. Affinities are written as log10 Kd with Kd in nM; a lower number is a better binder. Averages over replicates are reported, and they cover detected replicates only. "nd" marks a missing value. The strain was present, yet no cells mated with the target were sequenced in any replicate, which points to weak or no binding. The authors' rule: three or more of the six replicates give a measured affinity, fewer mean a poor binder.

CDR-H1,CDR-H2,CDR-H3,mean log10 Kd (nM),seen in
GFDLNEYGIS,VIYADGRRTFYSDSVK,GENAGTFDS,-0.51,6 of 6
GFILDEYGIS,VIYADGQRSAYKDSVK,GVDGTNGVI,nd,0 of 6
GFTLNSYGIS,VIYADGRRTFYGDSVK,GRAAGTFDA,0.77,6 of 6
GFTLNSYGIS,VIYADGRRTFYGDSVK,GMAAGTFKM,nd,0 of 6
GFSIDEYGIS,VIYADGLRQFYTNAVK,GMAAGTLDM,nd,0 of 6
GFQLNSYGIS,VIYSDGRRTFYGDSVK,GEAAGTFDS,1.72,5 of 6
GFSLNDYGIS,VIYSDGRRTFYGDSVK,GRMAGTFIS,nd,0 of 6
GFDLNEYGIS,VIYADGRRTFYADSVK,GNLAGTFDV,-0.67,6 of 6
GFDLNEYGIS,VIYADGMRTAYADDVK,GTVAGTFDV,-0.88,6 of 6
GFDLNEYGIS,VIYADGVRTVYADSVK,GENAGTFDM,nd,0 of 6
GFFLNEYGIS,VIYSDGRRTFYGDSVK,GRQAGTFDS,1.69,6 of 6
GFDLDEYGIS,VIYADGRRTFYADSVK,GQVAGTFDS,-0.28,6 of 6
GFALNSYGIS,VIYSDGRRTFYDDSVK,GQMAGTFDS,0.76,6 of 6
GFTLNSYGIS,VIYSDGRRTFYGDSVK,GRAAGVFDS,nd,0 of 6
GFDLNSYGIS,VIYSDGRRTFYTDSVK,GDAAGTFDS,0.34,6 of 6
GFQLNMYGIS,VIYSDGRRTFYGDSVK,GRTAGTFDS,1.58,6 of 6
GFSLNEYGIS,VIYSDGRRTFYGDSVK,GRQAGTFDG,0.49,6 of 6
GFDLEEYGIS,VIYADGRRTFYADSVK,GEIAGTFDL,-0.47,6 of 6
GFDLNEYGIS,VIYADGRRTFYADSVK,GEEAGTFDI,-0.73,6 of 6
GFDLNEYGIS,VIYADGVRTSYADDVK,GNNAGTFDV,-1.14,6 of 6
GFNLDEYGIS,VIYADGRRVAYANNVK,GKNGAFFSN,2.57,2 of 6
GFDLNEYGIS,VIYADGKRTVYADSVK,GENAGTFDV,-1.10,6 of 6
GFTLNSYGIS,VIYSDGRRTFYGDSVK,GSVAGTFDV,-0.09,9 of 12
GFDLDEYGIS,VIYADGMRTAYADSVK,GENAGTFDA,-0.04,6 of 6
GFNLNEYGIS,VIYADGRRSFYADSVK,GEAAGTFDV,-0.67,6 of 6
GFSLNMYGIS,VIYSDGRRTQYGDSVK,GRAAGTFDS,1.41,6 of 6
GFTLESYGIS,VIYSDGRRTFYADSVK,GQAAGTFDS,0.82,6 of 6
GFDLNEYGIS,VIYADGRRTFYTDSVK,GEAAGTFDQ,2.97,1 of 6
GFTLNDYGIS,VIYSDGRRTFYGDSVK,GRIAGTFES,0.40,6 of 12
GFSLNEYGIS,VIYSDGRRTFYGDQVK,GKTAGTFDS,-0.18,6 of 6
GFTLNSYGIS,VIYSDGRRTFYGDSVK,GRAAGFFES,0.80,6 of 6
GFDLDEYGIS,VIYADGQRTAYSDSVK,GNEAGTFDL,0.02,6 of 6
GFTLNSYGIS,VIYSDGRRTFYGDNVK,DRLAGTFDS,nd,0 of 6
GFDLNEYGIS,VIYADGKRTAYADDVK,GEVAGTFDI,-0.58,6 of 6
GFELNSYGIS,VIYSDGRRTFYADSVK,GREAGTFDA,1.15,6 of 6

Continued, with the values leading:

mean log10 Kd (nM),seen in,CDR-H1,CDR-H2,CDR-H3
0.31,6 of 6,GFTLNSYGIS,VIYADGRRTFYGDSVK,GRVAGTFDM
nd,0 of 6,GFGLQEYGIS,VIYADGLRSMYANSVK,GNSDGMVLV
-0.15,6 of 6,GFDLNEYGIS,VIYSDGRRTFYHDSVK,GRTAGTFDS
nd,0 of 6,GFDLGEYGIS,VIYADGVRQSYVDKVK,GANGVDLLV
0.47,6 of 6,GFDLNEYGIS,VIYADGRRTFYSDSVK,GEAGGTFDQ
0.50,6 of 6,GFDLNEYGIS,VIYADGRRTYYADSVK,GTNGGTFDV
nd,0 of 6,GFDLMEYGVS,VIYADGQRQYYANKVK,GEISASFLI
1.16,4 of 6,GFNLNSYGIS,VIYSDGRRTFYIDSVK,GQTAGTFDK
0.48,6 of 6,GFTLNEYGIS,VIYSDGRRTFYGDSVK,GDAAGTFDS
0.10,6 of 6,GFDLNEYGIS,VIYADGMRTQYSDSVK,GNAAGTFDS
1.12,6 of 6,GFDLNSYGIS,VIYSDGRRTFYGDSVK,GRQAGTFDF
nd,0 of 6,GFTLNSYGIS,VIYSDGRRTFYHDSVK,GRASGTFDS
0.33,6 of 6,GFSLNSYGIS,VIYSDGRRTFYGDNVK,GNTAGTFDS
0.59,1 of 6,GPTLNSYGHS,VMYADGRRTFYGDSVK,GRAAGTNKS
-0.43,6 of 6,GFDLNEYGIS,VIYADGRRTYYADSVK,GQNAGTFDV
1.23,6 of 6,GFDLNEYGIS,VIYADGMRTAYADDVK,GNNAGTFDT
-0.01,3 of 6,GFELNSYGIS,VIYSDGRRTFYGDSVK,GEAAGTFDQ
-0.39,6 of 6,GFDLNEYGIS,VIYADGMRTAYADDVK,GGNAGTFDQ
1.24,6 of 6,GFTLNSYGIS,VIYSDGLRTFYTDSVK,GKAAGTFDS
0.13,6 of 6,GFSLNSYGIS,VIYSDGKRTFYADSVK,GQAAGTFDS
nd,0 of 6,GFTLNQYGIS,VIYSDGRRDFYSDSVK,GRAAGFFDS
-0.07,5 of 6,GFSLNEYGIS,VIYSDGRRTFYHDSVK,GRNAGTFDS
0.71,6 of 6,GFDLEDYGIS,VIYADGKRTAYTDSVK,GNVAGTFDV
1.42,2 of 6,GFSLNSYGIS,VIYSDGRRTFYADSVK,GTAAGTFDK
nd,0 of 6,GFSLNSYGIS,VIYSDGRRTFYQDSVK,GSAAGTFDS
-0.04,6 of 6,GFDLNEYGIS,VIYADGMRTAYIDSVK,GNQAGTFDL
nd,0 of 6,GYDLNEYGIS,VIYADGKRVSYAESVK,GNFIGKVAD
nd,0 of 6,GFWLNEYGIS,VIYSDGRRTFYGDSVK,GRAAVTFDQ
-0.12,6 of 6,GFDLDEYGIS,VIYADGTRTAYADSVK,GNVAGTFDL
-0.54,6 of 6,GFDLNEYGIS,VIYADGKRTFYTDSVK,GEHAGTFDV
-0.68,6 of 6,GFDLNEYGIS,VIYADGRRTFYSDSVK,GGNAGTFDV
1.01,6 of 6,GFNLNSYGIS,VIYSDGKRTFYVDSVK,GRQAGTFDS
nd,0 of 6,GFTLNSYGIS,VIYADGRRTFYGDSVK,GRAAGTFWS
nd,0 of 6,GFWLNEYGIS,VIYSDGRRTFYKDSVK,GRAAGTFDS
nd,0 of 6,GFDLNEYGIS,VIYADGVRTQYIDSVK,GEQAGTFDV
1.67,2 of 6,GFTLNSYGIS,VIYSDGRRTYYGDSVK,GRAPGIFFS

Excerpt, the first 9 entries:

{"CDR-H1": "GFDLNEYGIS", "CDR-H2": "VIYADGRRTFYSDSVK", "CDR-H3": "GENAGTFDS", "mean log10 Kd (nM)": "-0.51", "seen in": "6 of 6"}
{"CDR-H1": "GFILDEYGIS", "CDR-H2": "VIYADGQRSAYKDSVK", "CDR-H3": "GVDGTNGVI", "mean log10 Kd (nM)": "nd", "seen in": "0 of 6"}
{"CDR-H1": "GFTLNSYGIS", "CDR-H2": "VIYADGRRTFYGDSVK", "CDR-H3": "GRAAGTFDA", "mean log10 Kd (nM)": "0.77", "seen in": "6 of 6"}
{"CDR-H1": "GFTLNSYGIS", "CDR-H2": "VIYADGRRTFYGDSVK", "CDR-H3": "GMAAGTFKM", "mean log10 Kd (nM)": "nd", "seen in": "0 of 6"}
{"CDR-H1": "GFSIDEYGIS", "CDR-H2": "VIYADGLRQFYTNAVK", "CDR-H3": "GMAAGTLDM", "mean log10 Kd (nM)": "nd", "seen in": "0 of 6"}
{"CDR-H1": "GFQLNSYGIS", "CDR-H2": "VIYSDGRRTFYGDSVK", "CDR-H3": "GEAAGTFDS", "mean log10 Kd (nM)": "1.72", "seen in": "5 of 6"}
{"CDR-H1": "GFSLNDYGIS", "CDR-H2": "VIYSDGRRTFYGDSVK", "CDR-H3": "GRMAGTFIS", "mean log10 Kd (nM)": "nd", "seen in": "0 of 6"}
{"CDR-H1": "GFDLNEYGIS", "CDR-H2": "VIYADGRRTFYADSVK", "CDR-H3": "GNLAGTFDV", "mean log10 Kd (nM)": "-0.67", "seen in": "6 of 6"}
{"CDR-H1": "GFDLNEYGIS", "CDR-H2": "VIYADGMRTAYADDVK", "CDR-H3": "GTVAGTFDV", "mean log10 Kd (nM)": "-0.88", "seen in": "6 of 6"}

A sequence measured in both rounds can read differently, since the two assays cover different ranges. The parent sequence was in this pool as ten entries: three were never detected, three once, and four in most replicates, with averages from 0.34 to 2.37. Three control strains display no target. For all heavy chain designs, 1% of the pairings with them gave a signal, with a median of 2.08 and one signal in twenty below 0.84, so weak values seen in few replicates may be background. Some sequences occur more than once in the pool; their replicates are pooled.

The measurements come from Li et al. 2023 (doi:10.1038/s41467-023-39022-2) through the FLAb antibody collection.